Reference: US20140107021A1 (priority 2010, published 2014)
pEC50: −log10 of the molar value.

Protein sequences, listed by entry. Tags and fused reporters are not part of them. Residues count along the entry.
UniProt P43220, 24-463: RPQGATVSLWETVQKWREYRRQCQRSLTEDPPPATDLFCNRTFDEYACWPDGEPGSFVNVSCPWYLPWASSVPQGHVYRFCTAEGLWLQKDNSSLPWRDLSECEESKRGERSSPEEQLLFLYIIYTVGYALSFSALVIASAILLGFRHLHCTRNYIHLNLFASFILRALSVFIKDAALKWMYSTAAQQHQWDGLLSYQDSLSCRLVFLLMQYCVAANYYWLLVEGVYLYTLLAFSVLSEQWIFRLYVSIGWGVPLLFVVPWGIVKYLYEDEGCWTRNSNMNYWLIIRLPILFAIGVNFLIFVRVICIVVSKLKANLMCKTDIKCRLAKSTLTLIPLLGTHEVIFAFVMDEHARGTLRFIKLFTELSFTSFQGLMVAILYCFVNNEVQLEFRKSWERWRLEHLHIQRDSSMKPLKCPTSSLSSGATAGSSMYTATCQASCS

Target: T1, GLP-1 receptor (Homo sapiens, UniProt P43220)
T1 construct: expressed in transfected cells; host or cells: HEK293
Assay: cAMP induction at the GLP-1 receptor (agonist activity), firefly luciferase reporter assay in HEK293 cells
Assay type: cell-based
Conditions: read-out: GLP-1 (EC50); Table 2

pEC50: 10.40
Substance: Native GLP-1 [reference compound]
